Earlier results on one compound are cited in patent US5360612A, “Pharmaceutical compositions containing triazole derivatives for rectal administration” (Pfizer Inc., priority 1992, dated 1994).

The conditions of the data set: in vivo.

In the case of `COc1ccc2c3c1O[C@H]1[C@@H](O)C=C[C@H]4[C@@H](C2)N(C)CC[C@@]341` [codeine], the “bioavailability from suppository fatty bases” value is “do not show good bioavailability”.
